Here are results for one compound from PMC6344135, “Analgesic effects of the cathepsin K inhibitor L-006235 in the monosodium iodoacetate model of osteoarthritis pain” (Pain Reports, 2018).

Read-outs that look alike come from different tables or passages of the source.

For test [1], the system named is collagen-induced arthritis model. To be noted: 25 mg/kg/d, cited from earlier work.
Test [2] has as its system GFAP in the dorsal horn of the spinal cord. In words: Spinal cord GFAP immunofluorescence. To be noted: preventative 100 mg/kg, 27 days after MIA. On the procedure:
Astrogliosis was assessed in the dorsal horn of the spinal cord using perfused tissue from study 2: preventative 100-mg/kg L-006235. The lumbar region of spinal cords from MIA rats treated with either vehicle or L-006235 was sectioned (40-µm thick sections). Immunolabelling for glial fibrillary acidic protein (GFAP) was performed as previously described,[35] with sections incubated with 1:100 rabbit anti-GFAP (Abcam: ab48050) overnight at room temperature. Sections were then developed after being incubated with 1:300 Alexafluor 568 conjugated goat antirabbit secondary antibody. Images were taken from the superficial laminae of both the ipsilateral and contralateral dorsal horn with a Zeiss 200M microscope using a 20 × 0.8 numerical aperture objective lens. Images were autothresholded using the Renyi entropy threshold value,[19] and the suprathreshold areas of labelling were then quantified using ImageJ software.

The test system of test [3] is CD68+ and CD206+ cells in the synovium. In words: Synovial immunohistochemistry for CD68 and CD206 macrophages. As to conditions: preventative, second preventative study, 27 days after MIA. The procedure:
Perfusion-fixated knee joint sections from the second preventative experiment were labelled for the macrophage markers CD68 and CD206 (2 sections per rat). Sections were first dewaxed in xylene before being rehydrated in decreasing concentrations of ethanol (100%, 70%) before being incubated in distilled H2O. Sections were then incubated in a Tris-EDTA buffer (10-mM Tris Base, 1-mM EDTA, 0.05% Tween 20, pH 9.0) at 90°C for 20 minutes. After returning to room temperature, sections were washed in 0.05M Tris-buffered saline (TBS) before being blocked for 10 minutes with a peroxidase blocking solution (BLOXALL, Vector Labs, Burlingame, CA). Sections were washed again in 0.05M TBS before being incubated for an hour in blocking serum (made up as described in the Vectastain Elite ABC-HRP Kit [Vector Labs, PK-6200]). Sections were then incubated in either 1:400 rabbit antimannose (Abcam, Cambridge, United Kingdom: ab64693) or 1:400 mouse anti-CD68 (BioRad, Watford, United Kingdom: MCA341GA) overnight. […] Images were thresholded, and the number of above threshold particles was automatically counted. […] The area of synovia images was calculated, and data are presented as the number of positively stained cells per square millimeter.

For the next test, the system named is mouse cathepsin S. To be noted: read-out: inhibitory effect on mouse cathepsin S; kind of quantity not given; cited from earlier work.

Take `CN1CCN(c2nc(-c3ccc(C(=O)NC4(C(=O)NCC#N)CCCCC4)cc3)cs2)CC1`: the “cartilage and bone damage, and clinical score” value in test [1] (preventative) is “significantly attenuated”. For the same compound, the “cartilage and bone damage, and clinical score” value in test [1] (therapeutic, once clinical signs established) is “did not have significant effects”. Further, the “GFAP immunolabelling in the dorsal horn of the spinal cord” value in test [2] is “did not alter”. Besides, in test [3], the “number of CD68+ cells in the synovium” value is “lower compared with vehicle-treated rats” and the “number of CD206+ cells in the synovium” value is “no significant effect”. Further, in the test with mouse cathepsin S, the IC50 was 2400 nM.
